Target: T1, GlyT1 (Homo sapiens, UniProt P48067)
T1 construct: expressed in transfected cells
T1 sequence (P48067 1-706): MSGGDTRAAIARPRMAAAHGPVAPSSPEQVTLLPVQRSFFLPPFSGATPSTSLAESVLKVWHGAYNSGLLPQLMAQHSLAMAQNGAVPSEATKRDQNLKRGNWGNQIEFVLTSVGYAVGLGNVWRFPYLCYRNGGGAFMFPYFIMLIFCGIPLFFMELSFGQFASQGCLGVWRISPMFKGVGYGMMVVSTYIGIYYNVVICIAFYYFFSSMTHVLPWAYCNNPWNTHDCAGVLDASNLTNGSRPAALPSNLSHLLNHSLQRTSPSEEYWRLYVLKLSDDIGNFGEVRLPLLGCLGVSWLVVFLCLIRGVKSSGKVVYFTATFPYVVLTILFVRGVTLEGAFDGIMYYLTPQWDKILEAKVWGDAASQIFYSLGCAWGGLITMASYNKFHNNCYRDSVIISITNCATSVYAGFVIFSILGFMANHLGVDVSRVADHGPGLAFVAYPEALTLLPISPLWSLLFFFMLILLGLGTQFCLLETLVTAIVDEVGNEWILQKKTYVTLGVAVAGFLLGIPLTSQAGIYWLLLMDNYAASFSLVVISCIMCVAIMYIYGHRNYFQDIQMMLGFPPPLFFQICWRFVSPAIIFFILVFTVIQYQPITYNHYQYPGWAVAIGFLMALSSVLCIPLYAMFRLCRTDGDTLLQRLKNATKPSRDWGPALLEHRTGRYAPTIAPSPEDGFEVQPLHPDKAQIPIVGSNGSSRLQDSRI
Test: Glycine Transporter 1 (GlyT1) uptake assay, scintillation proximity assay of [14C]-glycine uptake
Assay type: cell-based
Method: Glycine Transporter 1 (GlyT1) Uptake Assay
Plates were then read on a MicroBeta plate counter (Perkin Elmer). Dose-response data for tested compounds were analyzed and curves were fit using a four parameter logistic fit to determine IC50 values. […]

SMILES	IC50
Cc1cc(-n2cc3c(n2)CN(C(=O)c2cc(C#N)ccc2N2CCC(F)(F)CC2)C3)ccn1 [Example 541, 4-(4 4-Difluoropiperidin-1-yl)-3-[2-(2-methylpyridin-4-yl)-2H 4H 5H 6H-pyrrolo[3,4-c]pyrazole-5-carbonyl]benzonitrile]	< 100 nM
CS(=O)(=O)c1ccc(N2CCC(F)(F)CC2)c(C(=O)N2Cc3cn(-c4ccccc4F)nc3C2)c1 [Example 69, 4 4-Difluoro-1-{2-[2-(2-fluorophenyl)-2H 4H 5H 6H-pyrrolo[3,4-c]pyrazole-5-carbonyl]-4-methanesulfonylphenyl}piperidine]	< 100 nM
CS(=O)(=O)c1ccc(N2CCC(F)(F)CC2)c(C(=O)N2Cc3cn(-c4cncc(F)c4)nc3C2)c1 [Example 100, 3-{5-[2-(4 4-Difluoropiperidin-1-yl)-5-methanesulfonylbenzoyl]-2H 4H 5H 6H-pyrrolo[3,4-c]pyrazol-2-yl}-5-fluoropyridine]	< 100 nM
N#Cc1ccc(-c2cccc(F)c2)c(C(=O)N2Cc3cn(-c4cncc(F)c4)nc3C2)c1 [Example 551, 4-(3-Fluorophenyl)-3-[2-(5-fluoropyridin-3-yl)-2H 4H 5H 6H-pyrrolo[3,4-c]pyrazole-5-carbonyl]benzonitrile]	1000 to 10000 nM
